In patent publication US6436639B1, “Bak promoter expression system” (Tanox, Inc., priority 1997, dated 2002):

What was measured:
Type in all cases: cell-based, human
[1] = test system: bak mRNA; experiment: Northern blot analysis of bak mRNA expression in HT-29 cells; conditions: 16 hours treatment, IFN-γ 200 units/ml, poly (I-C) 25 μg/ml, IFN-α 200 units/ml, IFN-β 500 units/ml
Procedure: To examine bak gene expression, Northern blot analyses were performed with HT-29 and Hela cells following IFN treatment. Bak mRNA expression following poly (I-C) treatment was also analyzed. […] (poly (I-C)) is a synthetic double-stranded RNA (dsRNA) that mimics viral infection. It is a potent inducer of interferon and activator of interferon-induced, dsRNA-dependent enzymes such as PKR and 2′,5′ oligoadenylate synthetase. These two enzymes are involved in maintaining the anti-viral state (see Jacobs and Langland (1996) Virology 219:339-349). […]

[2] = test system: bak intron 1 ISRE
Procedure: (§1) To examine the transcription factors that specifically bind promoter and neighboring elements of the bak gene and presumably mediate INF-γ and poly (I-C) induction of bak mRNA synthesis, electrophoretic mobility shift and supershift assays were performed. […] These oligonucleotides were radioactively end-labelled with ^32P-ATP and T4 polynucleotide kinase, and allowed to interact with nuclear extracts prepared from HT-29 cells as described (Bomsztyk, K. et al. J. Biol. Chem. 265:9413 (1990)). The cells were pre-treated with INF-α, -β, or -γ, or poly (I-C) as described in Example 5. Binding reactions were carried out in a total volume of 20 μl, containing nuclear extract (10 μg total protein), labeled DNA (50,000 cpm), varying amounts of unlabeled competitor oligonucleotide and poly (I-C) (1 μg) in EMSA buffer (5 mM KCl, 10 mM Tris-HCl (pH 7.5), 1 mM dithiothreitol, 1 mM EDTA, 4% glycerol) for 10 minutes at room temperature. Gel supershift assays were performed as described above, except that antibodies specific for various promoter-binding proteins were added after the initial binding reaction and the mixture was incubated overnight at 4° C. The samples were then fractionated by electrophoresis on a 4% polyacrylamide gel at 10 mA at 4° C. in 0.3×TBE running buffer. The gel was then dried and exposed to x-ray film at -70° C. overnight.

[3] = test system: bak promoter GAS
Procedure: as §1

What does the source list for IFN-β: type I interferon?
bak mRNA expression [1]: weakly increase; IRF protein binding to Bak ISRE (complexes C1, C2, C3) [2]: did not induce C1 and C3 formation; specific protein binding to Bak GAS (complex C1) [3]: not observed
